The values below come from PMC8880132 (Molecules, 2022).

Data set [1] in a line: Pharmacokinetic drug-drug interaction study in rats after oral administration. Particulars: rat plasma, TEL 4 mg/kg oral, with LEN (1.2 mg/kg). Type of data set: in vivo, SD (Sprague-Dawley) rats. As to the method:
SPF (specific pathogen free)-grade male SD (Sprague-Dawley) rats (weight: 230 ± 10 g) were purchased from Beijing Weitong Lihua Experimental Animal Technology Co. Ltd. (Beijing, China). Before starting the experiment, the rats were given sufficient food and water and kept under suitable conditions for one week. Suitable conditions included suitable temperature (23–27 °C), suitable humidity (50 ± 10%), and 12-h light–12-h dark diurnal cycle. All animals were fasted for 12 h before the start of the experiment, but they were allowed to drink water freely. All the animal experimental protocols were conducted in accordance with the UK Animals (Scientific Procedures) Act 1986 and under the guideline approved by the Ethics Committee of Hebei General Hospital (Shijiazhuang, China; No. 2021131).
Twenty-four healthy rats were randomly and equally divided into four groups (six animals in each group). […] Approximately 0.3 mL of blood was collected from the orbital venous plexus in a heparinized centrifuge tube from each rat at 0.25, 0.5, 1, 2, 3, 4, 6, 8, 10, 12, 24, 48, 72, and 96 h after administration. […]
The main pharmacokinetic parameters are presented as mean ± standard deviation and statistically analyzed using SPSS 25.0 software package (SPSS Inc., Chicago, IL, USA). […]

The test system of data set [2] is plasma protein. The note with it: cited from earlier work.

Molecules are shown by their SMILES.

In the case of `CCCc1nc2c(C)cc(-c3nc4ccccc4n3C)cc2n1Cc1ccc(-c2ccccc2C(=O)O)cc1` [TEL, Telmisartan], the Vz in data set [1] is 26.59 ± 19.50 L/kg. Moreover, in data set [2], the “plasma protein binding ratio” value was around 99%.
